Entries after “also recorded” stand apart in the source; their conditions may differ.
Tests used:
[1] = system: BT-474, HCC-1954, SK-BR-3, MDA-MB-231, MCF-7 and SK-OV-3 cells; assay: In vitro cytotoxicity, whole cell panel of Bioactivity Example 1; settings: 5.0E01 to 2.6E-03 μg/mL
Excerpt: All tumor cell lines used in this study were obtained from the American Type Culture Collection (ATCC), unless otherwise indicated; BT-474 (ATCC HTB-20, Breast Ductal Carcinoma), SK-BR-3 (ATCC HTB-30, Breast Adenocarcinoma) and HCC-1954 (ATCC CRL-2338, Breast Ductal Carcinoma), all HER2+; MDA-MB-231 (ATCC HTB-26, Breast Adenocarcinoma) and MCF-7 (ATCC HTB-22 Breast Adenocarcinoma, pleural effusion), all HER2-; SK-OV-3 (ATCC HTB-77, Ovary Adenocarcinoma), HER2+; NB-4 (Acute Promyelocytic Leukemia, APL, CD13+, M. Lanotte et al. (1991) NB4, a maturation inducible cell line with t(15;17) marker isolated from a human acute promyelocytic leukemia (M3). […]
(§1) For adherent cells: A colorimetric assay using sulforhodamine B (SRB) was adapted for quantitative measurement of cell growth and cytotoxicity, as described in V. Vichai and K. Kirtikara (2006) Sulforhodamine B colorimetric assay for cytotoxicity screening. […] For quantification, cells were washed twice with phosphate buffered saline (PBS), fixed for 15 min in 1% glutaraldehyde solution, rinsed twice with PBS, stained in 0.4% SRB-1% acetic acid solution for 30 min, rinsed several times with 1% acetic acid solution and air-dried. SRB was then extracted in 10 mM trizma base solution and the optical density measured at 490 nm in a microplate spectrophotometer. Cell survival was expressed as percentage of control, untreated cell survival. […]

[2] = system: HCC-1954, SK-BR-3, MDA-MB-231 and MCF-7 cells; assay: In vitro cytotoxicity, whole breast cancer cell panel; settings: for cytotoxicity (words): 10 μg/mL
Excerpt: All tumor cell lines used in this study were obtained from the American Type Culture Collection (ATCC), unless otherwise indicated; BT-474 (ATCC HTB-20, Breast Ductal Carcinoma), SK-BR-3 (ATCC HTB-30, Breast Adenocarcinoma) and HCC-1954 (ATCC CRL-2338, Breast Ductal Carcinoma), all HER2+; MDA-MB-231 (ATCC HTB-26, Breast Adenocarcinoma) and MCF-7 (ATCC HTB-22 Breast Adenocarcinoma, pleural effusion), all HER2-; SK-OV-3 (ATCC HTB-77, Ovary Adenocarcinoma), HER2+; NB-4 (Acute Promyelocytic Leukemia, APL, CD13+, M. Lanotte et al. (1991) NB4, a maturation inducible cell line with t(15;17) marker isolated from a human acute promyelocytic leukemia (M3). Blood 77, 1080-1086), (CD13+) and U937 (ATCC CRL-1 593.2, Histiocytic Lymphoma, CD13+ and CD4+); Raji (ATCC CCL-86, Burkitt's Lymphoma) (CD13−, CD20+, CD5−, and CD4−); RPMI-8226 (ATCC CRM-CCL-155, Multiple Myeloma) (CD13−, CD20−, CD5− and CD4−); Karpas-299 (DSMZ ACC-31, Non-Hodgkin's Lymphoma) (CD20−, CD5+, and CD4+); MOLT-4 (ATCC CRL-1 582, Acute Lymphoblastic Leukemia, CD5+). In addition, the two Raji cell (ATCC CCL-86, Burkitt's Lymphoma) clones used in this study Raji-clone #10 (high CD5 expression) and Raji-clone18 (null CD5 expression), were provided by Dr. Juan M. Zapata (Instituto de Investigaciones Biomedicas “Alberto Sols”, CSIC-UAM, Madrid, Spain). […]
as §1

For “Trastuzumab: monoclonal antibody that interferes with the HER2/neu receptor; purchased from Roche [reference compound]”, the “cytotoxicity in DR curves” value [1] was “completely inactive”, the “cytotoxicity (words)” value [2] was “no cytotoxicity” and the “cytotoxicity (words)” value ([2]; listed as trastuzumab) was “no cytotoxicity activity; also recorded: no cytotoxic activity”. For the same substance, the “cytotoxic activity” value ([2]; 50 μg/mL) was “no significant cytotoxic activity”.

— patent US12410148B2, “Antibody drug conjugates” (Pharma Mar, S.A., priority 2013, dated 2025)
